Experimental melting point values from OPERA 2.9

From the experimental data distributed with OPERA 2.9.

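The OPERA project collected these measurements from public sources as training and test data for property models. A listed value is a point estimate from one report or more. Method and conditions are not stated for these values. Where a salt, mixture or single isomer is drawn, the source does not say that exactly this form was tested. Unmarked limits or estimates from the upstream databases cannot be ruled out.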

Melting points are in °C. The databases behind each value are named after "via".

compound	mp (°C)	via
CCOC(=O)C1CCCNC1=O (stereo not drawn)	81	OCHEM
O=C1NC(=O)N(c2ccccc2)C1=O	214	OCHEM
COc1cccc(C(N)=O)c1O	156	OCHEM
O=C(NCCCCCCNC(=O)NCc1ccccc1)NCc1ccccc1	221	eChemPortal
COc1ccc(S(=O)(=O)Cl)cc1NC(C)=O	146	OCHEM
CC(=O)OC(C)CC(C)(C)c1ccccc1 (stereo not drawn)	-82	eChemPortal
Nc1nnc(C2CC2)o1	171	OCHEM
CC(=O)NCc1ccc(S(=O)(=O)Cl)s1	81	OCHEM
Cc1ccccc1CNC(=O)CCl	106	OCHEM
Cc1nc2ccccc2nc1CCl	122	OCHEM
O=C(O)C1(O)CCCCC1	103	OCHEM
Nc1sc2c(c1-c1nc3ccccc3[nH]1)CCCC2	176	OCHEM
CS(=O)(=O)OC[C@H]1CO[C@](Cn2ccnc2)(c2ccc(Cl)cc2Cl)O1.Cl (relative stereo)	166.6	eChemPortal
O=Cc1ccc(-c2ccc(Br)cc2)s1	111	OCHEM
N#CCC(=O)Nc1ccc(S(N)(=O)=O)cc1	216	OCHEM
OCCN1CN(CCO)CN(CCO)C1	-79	eChemPortal
C/C=C/CC[C@H]1CC[C@H]([C@H]2CC[C@H](CCC)CC2)CC1	75.1	eChemPortal
CC1C2CC(CC2C2CCCC(O)C2)C1(C)C (stereo not drawn)	-9.915	eChemPortal
Sc1nncn1-c1ccccc1	173	OCHEM
CCN(CC)S(=O)(=O)c1cccc(N)c1	85	OCHEM
CCN(CC)c1ccc2c(C#N)c(-c3nc4ccccc4s3)c(=O)oc2c1	255.8	eChemPortal
SC1CCCCC1	-118.2	PubChem, eChemPortal
Cn1c(=O)[nH]c2ccccc2c1=O	243	OCHEM
COc1ccc(OCCCC(=O)O)cc1	103	OCHEM
CCC(CC)CC1(C(=O)O)CCCCC1	21	eChemPortal
CNc1nc2ccccc2o1	100	OCHEM
Cc1ccccc1-c1csc(=N)[nH]1	81	OCHEM
O=C(Cc1nc2ccccc2[nH]1)c1ccccc1	181	OCHEM
Cc1ccc(-c2cc(N)on2)cc1	149	OCHEM
CC1C(=O)NC(=O)N1c1ccccc1 (stereo not drawn)	148	OCHEM
CC(C)C1OCCN1CCO (stereo not drawn)	-20.07	eChemPortal
Cc1noc(C)c1CCC(=O)O	110	OCHEM